Measured values: patent US20090326007A1, “Compounds and methods for modulating sir2 protein activity” (priority 2007, published 2009)

The chains behind the UniProt entries cited, without tags or fusion partners. Residues count along the entry.
UniProt P53686, 1-294: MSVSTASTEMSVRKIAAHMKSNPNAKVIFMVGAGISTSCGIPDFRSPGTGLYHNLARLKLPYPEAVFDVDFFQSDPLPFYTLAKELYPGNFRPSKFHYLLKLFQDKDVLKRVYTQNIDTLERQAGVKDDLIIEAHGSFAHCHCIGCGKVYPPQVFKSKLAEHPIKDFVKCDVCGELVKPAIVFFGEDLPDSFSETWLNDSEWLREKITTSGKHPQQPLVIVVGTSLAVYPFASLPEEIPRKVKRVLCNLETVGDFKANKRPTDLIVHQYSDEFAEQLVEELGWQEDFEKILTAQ

Columns and labels:
[1] = biological target: T1, full-length human SIRT1 (Homo sapiens, UniProt Q96EB6); assay: IC50 determination, fluorigenic deacetylase assay, FL SIRT1; details: read-out: SIRT1 IC50; Table 5; 240 μM NAD+, 200 μM substrate, 1 μM FL SIRT1, 15 min
T1 sequence (Q96EB6 1-747): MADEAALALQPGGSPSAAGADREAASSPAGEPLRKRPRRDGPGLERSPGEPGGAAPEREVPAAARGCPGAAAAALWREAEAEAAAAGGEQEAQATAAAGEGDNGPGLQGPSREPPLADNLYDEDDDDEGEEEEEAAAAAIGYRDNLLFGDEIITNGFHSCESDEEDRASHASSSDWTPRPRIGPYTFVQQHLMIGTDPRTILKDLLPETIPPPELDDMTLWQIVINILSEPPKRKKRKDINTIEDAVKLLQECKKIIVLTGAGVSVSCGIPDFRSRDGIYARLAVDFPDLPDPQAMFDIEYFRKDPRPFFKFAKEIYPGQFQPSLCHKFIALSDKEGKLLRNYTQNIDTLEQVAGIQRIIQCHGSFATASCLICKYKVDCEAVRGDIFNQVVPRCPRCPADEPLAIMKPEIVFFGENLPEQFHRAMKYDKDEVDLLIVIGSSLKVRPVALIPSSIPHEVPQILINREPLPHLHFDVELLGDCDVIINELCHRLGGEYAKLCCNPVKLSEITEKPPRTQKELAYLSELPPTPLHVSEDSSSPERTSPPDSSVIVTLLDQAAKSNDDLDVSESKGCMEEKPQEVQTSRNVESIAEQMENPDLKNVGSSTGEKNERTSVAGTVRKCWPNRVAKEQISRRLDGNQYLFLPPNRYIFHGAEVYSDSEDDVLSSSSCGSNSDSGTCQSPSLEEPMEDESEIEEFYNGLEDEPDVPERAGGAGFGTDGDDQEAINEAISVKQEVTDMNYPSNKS

[2] = biological target: T2, Hst2 (Saccharomyces cerevisiae, UniProt P53686); assay: IC50 determination, fluorigenic deacetylase assay, Hst2
[3] = biological target: T2, Hst2; assay: SAR analysis, fluorigenic assay at 50 and 500 μM; assay type: biochemical; details: Table 7, 50 μM compound, relative to control
From the text: Structure Activity Relationship (SAR) Analysis.

[4] = biological target: T2, Hst2; assay: Competition assay (inhibition mode versus NAD+ and acetyl-lysine substrate); assay type: biochemical
Description: Competition Assay. […] The fluorigenic assay described above was used with a fixed enzyme concentration of 1 μM. When competition with NAD^+ was being tested, the FLUOR DE LYS-SIRT1 deacetylase substrate was held at a constant concentration of 100 μM and the NAD^+ was titrated from ⅓-5× KmNAD+ (5-80 μM). When competition with the FLUOR DE LYS-SIRT1 deacetylase substrate was being tested, the NAD^+ concentration was held constant at 160 μM and the FLUOR DE LYS-SIRT1 deacetylase substrate was titrated from ⅓-5× the Kmacetyl-lysine (3-50 μM). The inhibitors were titrated from ˜½-several times their estimated Ki as indicated. The reaction time was 15 minutes, and each condition was tested in duplicate. The Km, kcat and kcat/Km values were determined by direct fit of the data in SIGMAPLOT (Systat Software, Point Richmond, Calif.) to the Michealis-Menten equation. The Ki and Kis (the slope and intercept inhibition constants, respectively) and the competition type were also determined by a direct fit in SIGMAPLOT to both partial and full competitive, noncompetitive, uncompetitive and mixed competition models. Best-fit models were determined by several statistical methods including R^2, AICs and Sy.x as well as empirical evaluation of α and β values. […]

O=C1CCc2c(ccc3ccccc23)O1 [Splitomycin (3), Splitomycin, reference compound]
IC50 [1]: > 500 µM

Cn1cc(C2=C(c3cn(CCCSC(=N)N)c4ccccc34)C(=O)NC2=O)c2ccccc21 [Ro 31-8220 (6), Ro 31-8220, reference compound]
IC50 [1]: 25 ± 7 µM

COCC#CC1c2cc(O)c(OC)cc2CCN1C (stereo not shown) [Compound 15a, 6-Methoxy-1-(3-methoxy-prop-1-ynyl)-2-methyl-1,2,3,4-tetrahydro-isoquinolin-7-ol]
IC50 values (range in words) [2]: mid-micromolar range | IC50 ([2]; read-out: Hst2 IC50, Table 5, 160 μM NAD+, 100 μM substrate, 1 μM Hst2, 15 min): 130 ± 4 µM | activity at 50 µM [3]: 76% | Ki ([4]; substrate NAD+ varied): 42 ± 17 µM | Ki ([4]; substrate acetyl-lysine varied): 43 ± 8 µM
